Reference: PMC4019984, “Kinase and channel activity of TRPM6 are co-ordinated by a dimerization motif and pocket interaction” (Biochemical Journal, 2014)

Legend:
[1] = target: T1, GST-tagged TRPM6-(1730–end) (Homo sapiens, UniProt Q9BX84); assay: Fluorescence polarization binding assay, TRPM6-(1730–end); conditions: 100 nM labelled peptide, pH 7.5, room temperature
T1 construct: E. coli-purified GST-tagged TRPM6-(1730–end); made in house; host or cells: E. coli BL21
T1 sequence (Q9BX84 1730-2022 limits assumed): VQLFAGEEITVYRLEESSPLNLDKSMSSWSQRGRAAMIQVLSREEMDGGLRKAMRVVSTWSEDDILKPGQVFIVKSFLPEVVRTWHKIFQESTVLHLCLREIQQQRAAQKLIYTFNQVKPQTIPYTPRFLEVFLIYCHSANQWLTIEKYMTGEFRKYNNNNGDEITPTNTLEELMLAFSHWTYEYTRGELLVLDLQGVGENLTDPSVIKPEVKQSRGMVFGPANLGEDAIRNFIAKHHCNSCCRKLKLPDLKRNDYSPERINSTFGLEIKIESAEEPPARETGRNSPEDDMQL
Experimental: (§1) The peptides used for the assay contained a C-terminal linker leading to the peptides […] (wild-type) and […] (mutant). The peptides were labelled with Lumio Green (Invitrogen) following the manufacturer's protocol. Fluorescence polarization measurements were performed at room temperature in buffer containing 25 mM Tris/HCl (pH 7.5), 200 mM NaCl and 5 mM 2-mercaptoethanol. Binding assays were performed by combining 100 nM labelled peptide with increasing concentrations of TRPM6 kinase, in a total volume of 30 μl of buffer, and end-point polarization measurements were made using the BMG PheraStar plate reader. The polarization values were measured at an excitation wavelength of 485 nm and an emission wavelength of 538 nm, and were corrected for fluorescent probe alone. At least ten data points were measured for each curve, and each data point was measured in duplicate. Data were analysed using GraphPad Prism 5 and curve-fitting of the data from two independent experiments was performed with one-site specific binding with Hill slope [model Y=BmaxX^h/(Kd^h+X^h)] to determine Kd values.
(Figure 2A). We next utilized fluorescence polarization technology, a sensitive method to evaluate interactions between proteins and peptides. […]

[2] = tested on: GST-tagged TRPM6-(1730–end) L1743A; assay: Fluorescence polarization binding assay, L1743A mutant; set-up: species or system human; conditions: 100 nM labelled peptide, L1743A dimerization pocket mutant, pH 7.5, room temperature
Experimental: as §1, with “values. […]” for “values.”
(§2) Figure 3 Analysis of the dimerization pocket residues (A) Structural model of TRPM6 based on TRPM7 α-kinase depicting the binding of Leu^1718 and Leu^1721 to other residues in the α-kinase domain. […] The samples were analysed by immunoblotting with anti-GST antibody (top panel). […]

[3] = tested on: GST-tagged TRPM6-(1730–end) L1919Q; assay: Fluorescence polarization binding assay, L1919Q mutant; set-up: species or system human; conditions: 100 nM labelled peptide, L1919Q dimerization pocket mutant, pH 7.5, room temperature
Experimental: as §1, with “values. […]” for “values.”
as §2

CC[C@H](C)[C@H](NC(=O)[C@H](C)NC(=O)[C@H](CO)NC(=O)[C@H](Cc1ccc(O)cc1)NC(=O)[C@H](Cc1c[nH]cn1)NC(=O)[C@H](Cc1c[nH]cn1)NC(=O)[C@H](Cc1c[nH]cn1)NC(=O)[C@@H]1CCCN1C(=O)[C@H](CCC(=O)O)NC(=O)[C@H](CCC(N)=O)NC(=O)[C@@H]1CCCN1C(=O)[C@H](CO)NC(=O)[C@H](CCCCN)NC(=O)[C@@H](N)CC(C)C)C(=O)N[C@@H](CCC(=O)O)C(=O)N[C@@H](CCCNC(=N)N)C(=O)N[C@@H](CC(N)=O)C(=O)N[C@@H](CC(N)=O)C(=O)N[C@@H](CC(C)C)C(=O)N[C@@H](CCSC)C(=O)N[C@@H](CCCNC(=N)N)C(=O)N[C@@H](CC(C)C)C(=O)N[C@@H](CO)C(=O)N[C@@H](CCC(N)=O)C(=O)N[C@H](C(=O)N[C@H](C(=O)N1CCC[C@H]1C(=O)N[C@@H](Cc1ccccc1)C(=O)N[C@H](C(=O)N1CCC[C@H]1C(=O)N[C@H](C(=O)N[C@@H](CCC(N)=O)C(=O)N[C@@H](CC(C)C)C(=O)N[C@@H](Cc1ccccc1)C(=O)N[C@@H](C)C(=O)NCC(=O)N[C@@H](CCC(=O)O)C(=O)N[C@@H](CCC(=O)O)C(=O)N[C@H](C(=O)N[C@H](C(=O)N[C@H](C(=O)NCC(=O)NCC(=O)N[C@H]1CS[As]2SC[C@H](NC1=O)C(=O)N1CCC[C@H]1C(=O)NCC(=O)N[C@H]1CS[As](SC[C@@H](C(=O)O)NC1=O)c1c(O)ccc3c1Oc1c(ccc(O)c12)C31OC(=O)c2ccccc21)C(C)C)[C@@H](C)O)[C@@H](C)CC)C(C)C)[C@@H](C)O)[C@@H](C)CC)[C@@H](C)O (stereo partly shown)
fluorescence polarization increase (binding) ([1]; increasing concentrations of TRPM6-(1730–end)): dose-dependent increase in fluorescence polarization | Hill slope ([1]; variable slope model, one-site-binding equation): 1.0 | interaction with fluorescently labelled dimerization motif peptide [2]: inhibited interaction | interaction with fluorescently labelled dimerization motif peptide [3]: inhibited interaction
